# Only a part is listed here, and it is no random draw. The source made the active and inactive calls.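 Rule for the calls: active = activation over 3 SD above normal in the single-dose calcium agonist read (cut at about 30% in these data); inactive = the rest.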
# Chains of the proteins cited; added tags and fusions are not shown.
# UniProt P14416, whole entry, looked up: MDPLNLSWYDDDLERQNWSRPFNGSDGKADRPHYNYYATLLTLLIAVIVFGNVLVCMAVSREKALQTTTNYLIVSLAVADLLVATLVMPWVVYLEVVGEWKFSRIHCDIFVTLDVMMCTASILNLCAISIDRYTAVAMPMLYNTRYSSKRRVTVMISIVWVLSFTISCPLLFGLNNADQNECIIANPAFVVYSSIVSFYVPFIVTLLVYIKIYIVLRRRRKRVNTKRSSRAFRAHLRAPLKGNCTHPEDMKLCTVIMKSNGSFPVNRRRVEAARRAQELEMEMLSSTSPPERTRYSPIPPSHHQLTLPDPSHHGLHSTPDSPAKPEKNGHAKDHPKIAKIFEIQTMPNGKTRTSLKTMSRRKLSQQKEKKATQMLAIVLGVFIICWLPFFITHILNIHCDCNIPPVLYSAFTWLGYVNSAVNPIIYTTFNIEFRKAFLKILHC
# Target: D(2) dopamine receptor (Homo sapiens) (UniProt P14416)
# Assay: HTS Assay for Allosteric Agonists of the Human D2 Dopamine Receptor: Primary Screen for Agonists; note: 0% is about no effect
# Conditions: HEK293 T-REx D2 cells, calcium flux agonist mode; at 2 µM; hits give high values
# Text: NIH Chemical Genomics Center [NCGC] NIH Molecular Libraries Probe Centers Network [MLPCN] MLPCN Grant: NS064831-01 Assay Submitter (PI): David Sibley Dopamine receptors (DARs) are involved in the etiology and/or therapy of a number of neuropsychiatric and endocrine disorders. For instance, all receptor-based antiparkinsonian drugs work via stimulating the D2 DAR subtype whereas all FDA-approved antipsychotic agents are antagonists of this receptor. […] There are three different types of allosteric modulators that we are seeking, two of which will stimulate or augment receptor signaling, allosteric agonists and potentiators, while the third, allosteric antagonists, will attenuate receptor signaling. The present primary screening assay measures compound agonism by tracking calcium flux in a […], inducible Hek293 Trex D2 cell line.
# Freshly passaged cells are plated in 1536 well black, clear bottom plates at a density of 4000 cells/well in 3 ul of complete media containing 1x tetracycline inducer. After an overnight incubation at […] in 5% CO2, cells are loaded with 2 ul of the no wash Calcium Assay Kit (ABD Bioquest) and incubated at room temperature for 30 to 90 minutes. Agonist read: A 10 cycle (1 second/cycle) baseline measurement is taken and then the FDSS online 1536 pintool delivers 23 nl of compound library (as well as dopamine controls) to the plate. The plate is measured for kinetically at 1 cycle/sec for 180 seconds and is considered to be the agonist portion of the assay (eg, compounds which activate a positive calcium response during this portion are flagged as potential agonists). Following the 180 second read, 1 ul of either an EC20 (positive modulation assay) or EC80 (negative modulation assay) is delivered by an onboard pipette head. Measurements are taken kinetically for an additional 180 seconds.
row,SMILES,activation
1,Cc1ccc(NP(=O)(Oc2ccccc2F)Oc2ccccc2F)nc1,inactive: -0.42%
2,Cc1cc(SC(NC(=O)c2ccc(F)cc2)C(Cl)(Cl)Cl)ncn1 (stereo not given),inactive: -0.127%
3,CCOP(=O)(Nc1ccccc1)OCC,inactive: 0.0349%
4,CC(=O)Nc1ccc([As](=O)(O)O)cc1,inactive: 1.01%
5,O=C(O)c1ccccc1[As](=O)(O)O,inactive: -3.32%
6,O=P(Nc1nc2ccc(Cl)cc2s1)(c1ccccc1)c1ccccc1,inactive: -1.85%
7,CCN(N=Nc1nonc1N)c1nonc1N,inactive: 0.207%
8,Nc1cccc2ccc([As](=O)(O)O)cc12,inactive: -0.486%
9,O=[N+]([O-])c1cc([N+](=O)[O-])c(CCN2CCOCC2)c([N+](=O)[O-])c1,inactive: 0.486%
10,Cc1ccc(OP(=O)(Nc2nccs2)Oc2ccc(C)cc2)cc1,inactive: -0.121%
11,COc1ccccc1OP(=O)(Nc1ccc(C)cn1)Oc1ccccc1OC,inactive: 0.267%
12,CN1CCCC(OC(=O)C(c2ccccc2)c2ccccc2)C1 (stereo not given),inactive: 0.973%
13,Clc1ccc(Cl)c(NC2=NCC(CBr)S2)c1 (stereo not given),inactive: -1.01%
14,NC(=O)c1cc([N+](=O)[O-])cc([N+](=O)[O-])c1N,inactive: -0.513%
15,Cc1ccc(N/C(=N/P(=O)(N2CCOCC2)N2CCOCC2)N2CCOCC2)cc1,inactive: 0.188%
16,CN(C(=O)Cc1ccc(Cl)c(Cl)c1)[C@H]1CCCC[C@H]1N1CCCC1,inactive: 0.954%
17,Nc1cc(N)c2nonc2c1[N+](=O)[O-],inactive: -0.551%
18,O=C(NC(Sc1ccncn1)C(Cl)(Cl)Cl)c1ccccc1 (stereo not given),inactive: 0.435%
19,Cc1c2non([O-])c-2c(C)[n+](=O)[n+]1[O-],inactive: 0.45%
20,Oc1ccccc1CNc1ccccn1,inactive: 0.85%
21,CC(=O)N1C2C3N(C(C)=O)C1C1N(C(C)=O)C(C(N1C(C)=O)N3C(C)=O)N2C(C)=O,inactive: -0.651%
22,O=[N+]([O-])c1cccc2n[nH]nc12,inactive: 0.0657%
23,O=[N+]([O-])c1cc([N+](=O)[O-])c(CCNc2ccccc2)c([N+](=O)[O-])c1,inactive: -0.725%
24,CCc1nc2c(n1)c1c(non1O)c1c2no[n+]1[O-],inactive: -0.0797%
25,Cc1ccc(NP(=O)(Oc2ccccc2)Oc2ccccc2)nc1,inactive: -0.472%

row,SMILES,activation
1,COc1ccc(C2=NCC(CBr)S2)cc1 (stereo not given),inactive: -0.451%
2,CN(C)C(=O)OCCc1n(C)cc[n+]1C,inactive: -2.29%
3,CC(C)=N/N=C(\N)N[N+](=O)[O-],inactive: -0.976%
4,CC1CCN(C(=O)Oc2c(Cl)cc(Cl)c3cccnc23)CC1,inactive: 0.83%
5,C[N+]1=C2C=CC=CC=C2SC12C([N+](=O)[O-])=CC([N+](=O)[O-])=C[C-]2[N+](=O)[O-] (stereo not given),inactive: 8.31%
6,Nc1ccc([As](=O)(O)c2ccc(N)cc2)cc1,inactive: 0.691%
7,CCN(/C(=N/P(=O)(N1CCOCC1)N1CCOCC1)N1CCOCC1)c1ccc(OC)cc1,inactive: 0.0616%
8,O=C(Nc1cc([As](=O)(O)O)ccc1O)c1ccccc1,inactive: -1.46%
9,O=[N+]([O-])c1cccc(NC2=NCC(CBr)S2)c1 (stereo not given),inactive: 0.234%
10,O=C(O)CNc1ccc([As](=O)(O)O)cc1,inactive: 0.222%
11,CC(C)(C)C(=O)NC(Sc1ccncn1)C(Cl)(Cl)Cl (stereo not given),inactive: 0.91%
12,O=[N+]([O-])c1ncn(CCn2ncnc2[N+](=O)[O-])n1,inactive: 0.65%
13,O=P(Nc1nc2ccccc2s1)(c1ccccc1)c1ccccc1,inactive: 0.6%
14,CN(C)C1(CNC(=O)c2ccc(Cl)c(S(N)(=O)=O)c2)CCCCC1,inactive: 0.321%
15,O=P(Nc1ccccn1)(c1ccc(Br)cc1)c1ccc(Br)cc1,inactive: 0.75%
16,C(Cc1nn[nH]n1)Cc1nn[nH]n1,inactive: -0.311%
17,Nc1ccc([As](=O)(O)c2ccc([N+](=O)[O-])cc2)cc1,inactive: 0.203%
18,O=C(OC1CN2CCC1CC2)c1cccc(Cl)c1 (stereo not given),inactive: -0.106%
19,O=[N+]([O-])c1ncn(CCn2cnc([N+](=O)[O-])n2)n1,inactive: 0.532%
20,CC(=O)NC(SC(=S)N(C)C)C(Cl)(Cl)Cl (stereo not given),inactive: 1.24%
21,O=[N+]([O-])c1ccc(O)c(/C=N/Nc2ccc([N+](=O)[O-])cc2[N+](=O)[O-])c1,inactive: 1.42%
22,c1nnnn1CCn1cnnn1,inactive: 0.226%
23,O=P(Nc1nccs1)(c1ccccc1)c1ccccc1,inactive: 0.193%
24,CC(C)C(=O)NC(Sc1ccccc1)C(Cl)(Cl)Cl (stereo not given),inactive: -0.666%
25,CC(C)(C)C(=O)NC(Sc1ccccc1)C(Cl)(Cl)Cl (stereo not given),inactive: -0.961%

row,SMILES,activation
1,CCOc1ccc(C2=NCC(CBr)S2)cc1 (stereo not given),inactive: 0.933%
2,O=P1(Nc2nc3ccc(Cl)cc3s2)COc2ccccc2O1 (stereo not given),inactive: -0.102%
3,CC(=O)Nc1ccc(Oc2c([N+](=O)[O-])cc([N+](=O)[O-])cc2[N+](=O)[O-])cc1,inactive: -0.0645%
4,CC(=O)Nc1ccc([As](=O)(O)O)c(O)c1,inactive: 0.803%
5,CC(=O)c1ccc(N2CC2c2ccncc2)cc1 (stereo not given),inactive: 0.322%
6,C[C@H]1OP(=O)(Oc2ccccc2)C[C@@H]2O[C@@H]21 (stereo not given in full),inactive: -0.334%
7,C[C@@H]1C=CCP(=O)(Oc2ccccc2)O1 (stereo not given in full),inactive: 0.554%
8,O=C(NC1CCS(=O)(=O)C1)NP(=S)(Oc1ccccc1)Oc1ccccc1 (stereo not given),inactive: -0.0824%
9,CCOC(=O)NC(Sc1ccccc1)C(Cl)(Cl)Cl (stereo not given),inactive: -0.254%
10,Cc1ccc(NP(=O)(Oc2cccc(C)c2)Oc2cccc(C)c2)nc1,inactive: 0.136%
11,c1ccc(-c2nn[nH]n2)c(-c2nn[nH]n2)c1,inactive: 0.424%
12,O=c1c2cc([N+](=O)[O-])ccc2[nH]c2c([N+](=O)[O-])cc([N+](=O)[O-])cc12,inactive: 25.2%
13,CN(C)C(=O)Oc1noc2ccccc12,inactive: 0.191%
14,Cc1ccccc1OP(=O)(Nc1ccccn1)Oc1ccccc1C,inactive: -0.948%
15,Cc1ccc(OP(=O)(Nc2ccccn2)Oc2ccc(C)cc2)cc1,inactive: -7.57%
16,CC(=O)NC(SC(=S)N(CC(C)C)CC(C)C)C(Cl)(Cl)Cl (stereo not given),inactive: -0.854%
17,COC(=O)c1cc2c(s1)N=C(c1ccccc1)N(C)P2(=O)N1CCOCC1 (stereo not given),inactive: 0.421%
18,CCC(=O)N1C2C3N(C(=O)CC)C1C1N(C(=O)CC)C(C(N1C(=O)CC)N3C(=O)CC)N2C(=O)CC,inactive: 0.241%
19,O=C(OC1CN2CCC1CC2)c1ccccc1 (stereo not given),inactive: 0.291%
20,O=C(O)COc1ccc([As](=O)(O)O)cc1[N+](=O)[O-],inactive: -0.365%
21,Nc1ccccc1[As](=O)(O)c1ccccc1,inactive: 0.1%
22,CS(=O)(=O)c1cc([N+](=O)[O-])c2no[n+]([O-])c2c1,inactive: 0.156%
23,O=P(Nc1nccs1)(Oc1ccccc1)Oc1ccccc1,inactive: -0.823%
24,O=P(Nc1nccs1)(c1ccccc1)c1nc2ccccc2s1 (stereo not given),inactive: 0%
25,O=[N+]([O-])c1ccc2c(c1)nnn2O,inactive: -0.425%

row,SMILES,activation
1,CCOP1(=S)c2c(C)nn(CCC#N)c2N=C(c2ccc(F)cc2)N1C (stereo not given),inactive: 0.404%
2,CN(C(=O)Cc1ccccc1)[C@@H]1CC[C@]2(CCCO2)C[C@H]1N1CCCC1,inactive: -0.831%
3,N#CCCN(C(=O)COC(=O)C(O)(c1ccccc1)c1ccccc1)c1ccc(F)cc1,inactive: 0.592%
4,NC(=O)Nc1ccc([As](=O)(O)O)cc1,inactive: 0.267%
5,Cc1cccc(OCC(=O)OC2CN3CCC2CC3)c1 (stereo not given),inactive: -0.686%
6,O=[As](O)(c1cccc(O)c1)c1cccc(O)c1,inactive: 1.1%
7,CS(=O)(=O)c1ccc(Cl)c(NC(=O)COC(=O)C(O)(c2ccccc2)c2ccccc2)c1,inactive: -0.668%
8,O=[As](O)(O)c1cccnc1,inactive: 2.4%
9,COc1cc(C(=O)NCC2(N3CCOCC3)CCCCC2)cc(Cl)c1OC(C)C,inactive: 1.6%
10,O=C(OC1CN2CCC1CC2)c1ccc(Cl)cc1 (stereo not given),inactive: -1.71%
11,CCOP(=O)(Nc1cccc2ccccc12)OCC,inactive: 1.85%
12,COc1cc(C2NCCC3(OCCO3)C2(C)C)cc(OC)c1OC (stereo not given),inactive: -0.136%
13,CCCOP(=S)(Nc1nc(N)cc(=O)[nH]1)OCCC,inactive: -1.67%
14,Nc1cccc2c([As](=O)(O)O)cccc12,inactive: 13.1%
15,Cc1ccc(NCCc2c([N+](=O)[O-])cc([N+](=O)[O-])cc2[N+](=O)[O-])cc1,inactive: -0.563%
16,CC(C)(C)C(=O)NC(Sc1ncccn1)C(Cl)(Cl)Cl (stereo not given),inactive: 0.0145%
17,Clc1n[nH]nc1-c1nn[nH][15n]1,inactive: 0.416%
18,CCOP(=O)(Nc1ccc(C)cn1)OCC,inactive: 1.05%
19,CCOP(=O)(NC(=NC(C)c1ccccc1)NC(C)c1ccccc1)OCC (stereo not given),inactive: -3.13%
20,CCC1=CC2Cc3nc4ccc(Cl)cc4c(N)c3C(C1)C2 (stereo not given),inactive: 0.841%
21,O=P1(Nc2ccccn2)COc2ccccc2OC1,inactive: 0.69%
22,O=[As](O)(c1ccccc1Br)c1ccccc1Br,inactive: 4.29%
23,CN(C(=O)Cc1ccc(Cl)c(Cl)c1)[C@@H]1CCCC[C@H]1N1CCCC1,inactive: -1.35%
24,CC(C)/C=N\N=C(\N)N[N+](=O)[O-],inactive: -0.0332%
25,COc1ccccc1CNC(=O)COC(=O)C(O)(c1ccccc1)c1ccccc1,inactive: -0.261%
